Only some compounds are listed: those with a hit (about 16% of all), similar ones and a draw of the others.
DT40 TDP1 no CPT: qHTS for Inhibitors of human tyrosyl-DNA phosphodiesterase 1 (TDP1): qHTS in cells in absence of CPT | DT40 Tdp1-/- hTDP1 cells, no CPT, ATP luminescence, 48 h | Potency, µM (top dose mostly 46.2 µM), actives largely listed as inhibitors | 15% of 420,000 active | AID 686978, 2013; note: nearly all actives have a fitted effect of over 55% in size
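Readout: luminescence from CellTiter-Glo after 30 min in the dark at RT. Cells: DT40 Tdp1-/- with stable hTDP1, 400/well. Exposure: compounds alone, ≥48 hr, 37 °C.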
uPA generation: inhibitors of cell surface uPA generation; cell surface uPA generation assay, qHTS; Potency, µM (doses to about 38.3 µM), actives largely listed as inhibitors; 0.31% of 330,000 active; AID 540303; active = well fitted inhibition curve with a large enough effect; inconclusive = small, poorly fitted or top-dose-only effect; inactive = no such curve, though single readings can be large or run the other way; tested in mouse RAW 264.7 cells; note: nearly all actives have a fitted effect of over 55% in size
TDP1 cell CPT: growth inhibition of DT40 Tdp1-/-;hTDP1 cells with camptothecin (screen for TDP1 inhibitors); chicken DT40 Tdp1-/-;hTDP1 cells + 20 nM CPT, ATP luminescence, 48 h; Potency, µM (highest dose often 46.2 µM), actives largely listed as inhibitors; 12% of 420,000 active; note: nearly all actives have a fitted effect of over 55% in size
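Chicken DT40 Tdp1-/- cells complemented with human TDP1, 400 cells/well, exposed to compounds plus 20 nM camptothecin for at least 48 h at 37 C; viability read as ATP content by CellTiter-Glo luminescence.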
TDP1 inh: TDP1 (human) enzyme inhibition. AID 485290. Potency, µM (titrated, usually from 130 µM), actives largely listed as inhibitors. Q9NUW8. 0.28% of 350,000 active. recombinant TDP1, AlphaScreen DNA substrate cleavage; note: nearly all actives have a fitted effect of over 40% in size
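Recombinant E. coli-expressed Tdp1 (1 nM) preincubated with compound 15 min at RT, then 5'-biotin/3'-phosphotyrosine-FITC DNA substrate (15 nM) added for 5 min. AlphaScreen beads (10 ug/ml) added, 10 min RT; tyrosine-FITC cleavage read as signal loss.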
miR-21 reporter: raises the signal of a miR-21 reporter | HeLa miR-21 FLuc reporter, luciferase, 48 h | Potency, µM (doses to about 38.3 µM) | 340,000 tested, under 10 active | AID 2288; active = well fitted rising curve with a large enough effect; inconclusive = small, poorly fitted or top-dose-only effect; inactive = no such curve, though single readings can be large or run the other way;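 note: miR-21 action dims this reporter so a rising signal means less miR-21 action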
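Using DMEM plus 10% FBS, HeLa miR-21-FLuc cells are incubated with test compounds (final up to about 40uM) for 48 hours; firefly luciferase signal is then imaged following reagent-mediated lysis.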
Each line names hits and unclear results; the compound was inactive in the other large screens. Unless noted, calls come from the whole dose curve; as a rule, active = well fitted curve in the direction sought with a large enough effect; inconclusive = small, poorly fitted or top-dose-only effect, or another doubt; inactive = no such curve, though single readings can be large; an effect the other way counts as inactive or inconclusive.

CC(C)(C)OC(=O)C[C@H]1C/C=C\C[C@H](CC(=O)N(CCO)Cc2ccccc2)C(=O)N[C@H](C(C)(C)C)COC1=O	DT40 TDP1 no CPT 20.6µM, TDP1 cell CPT 29.1µM (no result: miR-21 reporter)
CC(C)(C)OC(=O)C[C@H]1C/C=C\C[C@H](CC(=O)N(CCO)Cc2ccccc2)C(=O)N[C@@H](Cc2ccccc2)COC1=O	DT40 TDP1 no CPT inconclusive, TDP1 cell CPT 16.4µM (no result: miR-21 reporter)
COc1ccc(/C=C2\SC(=S)N(CCCC(=O)Nc3ccc(C(=O)O)cc3)C2=O)cc1OC	TDP1 inh 50.1µM
COc1ccc(/C=C2/SC(=S)N(CCCC(=O)Nc3ccc(O)cc3)C2=O)cc1OC	DT40 TDP1 no CPT 14.6µM, uPA generation inconclusive, TDP1 cell CPT inconclusive
CCOc1ccc(/C=C2/SC(=S)N(CCC(=O)Nc3ccc(C(=O)O)cc3)C2=O)cc1	TDP1 inh 10µM
CCN(CC)CCOC(=O)c1ccc(NC(=O)CCCN2C(=O)S/C(=C/c3ccc(OC)cc3)C2=S)cc1	DT40 TDP1 no CPT 20.6µM, TDP1 cell CPT inconclusive, miR-21 reporter inconclusive
COc1ccc(/C=C2\SC(=O)N(CCCC(=O)Nc3ccc(C(=O)O)cc3)C2=O)cc1OC	none
COc1ccc(Nc2nc(C)cc(C)c2C(N)=O)cc1OC	none (no result: TDP1 inh)
Cc1cc(C)c(C(N)=O)c(Nc2ccc(F)cc2)n1	none (no result: TDP1 inh)
Cc1cc(C)c(C(N)=O)c(Nc2cccc3ccccc23)n1	none
Cc1ccc(Nc2nc(C)cc(C)c2C(N)=O)c(C)c1	DT40 TDP1 no CPT 6.51µM, TDP1 cell CPT inconclusive
Cc1cc(C)c(C(N)=O)c(Nc2ccc3c(c2)OCCO3)n1	DT40 TDP1 no CPT 7.31µM, TDP1 cell CPT inconclusive
CCc1ccc(Nc2nc(C)cc(C)c2C(N)=O)cc1	DT40 TDP1 no CPT 6.51µM, TDP1 cell CPT inconclusive (no result: TDP1 inh)
O=C(Oc1ccc[nH]c1=O)C1CC1	none (no result: uPA generation, TDP1 inh, miR-21 reporter)
O=C(COC(=O)c1c(F)cccc1F)Nc1cccc(S(=O)(=O)N2CCCCC2)c1	DT40 TDP1 no CPT inconclusive (no result: uPA generation, TDP1 inh, miR-21 reporter)
CCS(=O)(=O)Nc1ccc(-c2cc(-c3ccccc3)c3cc(C)ccc3n2)cc1	DT40 TDP1 no CPT inconclusive, TDP1 cell CPT inconclusive
Ic1ccc(Nc2nc(NCCN3CCOCC3)nc(N3CCCC3)n2)cc1	DT40 TDP1 no CPT 11.2µM, TDP1 cell CPT 11.2µM (no result: uPA generation, TDP1 inh, miR-21 reporter)
Ic1ccc(Nc2nc(NCCN3CCOCC3)nc(N3CCOCC3)n2)cc1	DT40 TDP1 no CPT 2.82µM, TDP1 cell CPT 5.01µM (no result: uPA generation, TDP1 inh, miR-21 reporter)
c1ccc(Nc2nc(NCCN3CCOCC3)nc(Nc3ccccc3)n2)cc1	DT40 TDP1 no CPT inconclusive, TDP1 cell CPT inconclusive (no result: TDP1 inh)
CC(C)CC(N)c1csc(Nc2ccc(C(F)(F)F)cn2)n1 (configuration not stated)	DT40 TDP1 no CPT 6.51µM, TDP1 cell CPT 11.6µM (no result: uPA generation, TDP1 inh, miR-21 reporter)
CN(C)Cc1csc(NC(=O)Nc2ccccc2C(C)(C)C)n1	TDP1 cell CPT inconclusive (no result: uPA generation, TDP1 inh, miR-21 reporter)
CN(C)Cc1csc(Nc2ccc(C(F)(F)F)cn2)n1	TDP1 cell CPT 25.9µM (no result: uPA generation, TDP1 inh, miR-21 reporter)
NC(Cc1ccc(Cl)cc1)c1csc(Nc2ccc(C(F)(F)F)cn2)n1 (configuration not stated)	DT40 TDP1 no CPT 9.2µM, TDP1 cell CPT 9.2µM (no result: uPA generation, TDP1 inh, miR-21 reporter)
NC(CCc1ccccc1)c1csc(Nc2ccc(C(F)(F)F)cn2)n1 (configuration not stated)	DT40 TDP1 no CPT inconclusive, TDP1 cell CPT 20.6µM (no result: uPA generation, TDP1 inh, miR-21 reporter)
COc1ccc(-n2cnc3ccccc3c2=O)c([N+](=O)[O-])c1	uPA generation inconclusive (no result: TDP1 inh)
CCNC(=S)N1CCNC(=O)C1CC(=O)OC (configuration not stated)	none
CCOC(=O)c1c(C)[nH]c(C)c1S(=O)(=O)N(C)CC(=O)Nc1ccccc1F	none
COc1ccc(-n2nc(C(=O)NCC(=O)NCCCN3CCOCC3)c3ccccc3c2=O)cc1OC	none
C=CCCC(=O)N1CCC(CCC(=O)NC2CC2)CC1	none
Cc1noc(NS(=O)(=O)c2ccc(NC(=O)COc3ccccc3Br)cc2)c1C	DT40 TDP1 no CPT inconclusive, TDP1 cell CPT inconclusive (no result: uPA generation)
CC(O)(c1ccc(F)c(F)c1)c1nc(-c2cccc3cccnc23)cs1 (configuration not stated)	TDP1 cell CPT inconclusive (no result: uPA generation, TDP1 inh, miR-21 reporter)
CC(O)(c1ccc(F)c(F)c1)c1nc(-c2cnc3ccccc3c2)cs1 (configuration not stated)	DT40 TDP1 no CPT 14.6µM, TDP1 cell CPT 16.4µM (no result: uPA generation, TDP1 inh, miR-21 reporter)

Screening results (PubChem BioAssay)
